Measured values taken from patent publication US11028127B2, “Peptides capable of reactivating p53 mutants” (Yeda Research and Development Co. Ltd., priority 2013, dated 2021).

System: Mut-p53
Assay: Total activity score over combined assays (Table 8)
Set-up: scale not given here
Text: Several alternative and complementary methods to screen lead peptide candidates for conformational and functional effects on Mut-p53 were employed. For increased penetration of peptide across cell membranes each peptide contains 3-6 Arginine residues either as part of its sequence or added either at its N-terminus or its C-terminus. 40 peptides were also conjugated to myristoil fatty acid (myr) for enhanced fusion with cell membranes that would potentially lead to better delivery into cells. In-vitro based assays for evaluation were first performed, such as ELISA for assessment of p53 conformation and sequence-specific DNA binding of p53. Subsequently, the peptides' activity was examined in live cells by viability assays, p53 transcriptional activity on a luciferase reporter gene, and examination of p53 target genes in-vivo. Combination of these assays (all performed in a 96 well format) allowed the identification and validation of the peptides' effects on different p53 activities and their ability to confer such ability to Mut-p53 proteins.

With pCAP8 (LTFEHYWAQLTS) the “Activity Score” value (Table 10 summary of activity of the peptides tested) was 0 and the “AS (Activity Score)” value (total score of Table 7) was 0.
